Measured values from patent US20140044713A1.

The chains behind the UniProt entries cited, without tags or fusion partners. Residues count along the entry.
UniProt O75197, 32-1615: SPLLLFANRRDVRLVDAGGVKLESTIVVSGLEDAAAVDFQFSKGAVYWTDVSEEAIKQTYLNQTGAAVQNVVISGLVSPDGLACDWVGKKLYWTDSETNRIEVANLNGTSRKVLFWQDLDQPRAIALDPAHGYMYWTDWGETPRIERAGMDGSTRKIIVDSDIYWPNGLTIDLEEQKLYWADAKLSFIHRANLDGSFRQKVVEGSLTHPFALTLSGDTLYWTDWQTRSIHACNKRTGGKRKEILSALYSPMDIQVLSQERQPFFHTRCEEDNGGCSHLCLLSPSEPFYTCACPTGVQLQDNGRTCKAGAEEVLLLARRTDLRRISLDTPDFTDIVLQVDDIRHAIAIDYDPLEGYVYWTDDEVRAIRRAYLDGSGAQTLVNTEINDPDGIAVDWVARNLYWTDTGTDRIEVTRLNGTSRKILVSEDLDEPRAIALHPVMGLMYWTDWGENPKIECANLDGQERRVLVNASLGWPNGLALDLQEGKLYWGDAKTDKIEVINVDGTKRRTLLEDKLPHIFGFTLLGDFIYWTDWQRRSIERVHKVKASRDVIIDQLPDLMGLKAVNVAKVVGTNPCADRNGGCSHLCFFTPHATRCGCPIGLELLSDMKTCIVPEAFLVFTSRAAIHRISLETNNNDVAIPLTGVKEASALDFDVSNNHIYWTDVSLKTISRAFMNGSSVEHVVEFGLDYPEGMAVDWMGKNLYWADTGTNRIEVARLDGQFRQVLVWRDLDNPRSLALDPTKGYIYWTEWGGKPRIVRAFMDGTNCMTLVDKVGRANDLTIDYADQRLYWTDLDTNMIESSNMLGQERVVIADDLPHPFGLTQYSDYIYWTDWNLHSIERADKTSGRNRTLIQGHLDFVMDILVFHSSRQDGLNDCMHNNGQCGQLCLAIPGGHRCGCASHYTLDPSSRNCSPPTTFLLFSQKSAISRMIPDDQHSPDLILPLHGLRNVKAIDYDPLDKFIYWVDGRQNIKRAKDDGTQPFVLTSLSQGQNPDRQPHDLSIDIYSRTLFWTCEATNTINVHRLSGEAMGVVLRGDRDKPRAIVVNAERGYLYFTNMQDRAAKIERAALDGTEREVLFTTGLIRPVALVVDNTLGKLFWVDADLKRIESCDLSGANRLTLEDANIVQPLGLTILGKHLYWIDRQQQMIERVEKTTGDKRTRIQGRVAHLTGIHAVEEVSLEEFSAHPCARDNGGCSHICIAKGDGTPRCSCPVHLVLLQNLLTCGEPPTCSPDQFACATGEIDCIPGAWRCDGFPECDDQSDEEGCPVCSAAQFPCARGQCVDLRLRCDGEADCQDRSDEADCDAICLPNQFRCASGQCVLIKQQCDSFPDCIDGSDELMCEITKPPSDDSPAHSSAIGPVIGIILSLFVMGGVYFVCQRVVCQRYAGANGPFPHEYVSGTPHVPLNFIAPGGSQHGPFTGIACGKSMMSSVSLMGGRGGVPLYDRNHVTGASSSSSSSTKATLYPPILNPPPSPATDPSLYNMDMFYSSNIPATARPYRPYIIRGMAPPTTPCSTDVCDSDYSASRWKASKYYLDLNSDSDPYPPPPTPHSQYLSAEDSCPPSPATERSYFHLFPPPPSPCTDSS
UniProt O75581, 20-1613: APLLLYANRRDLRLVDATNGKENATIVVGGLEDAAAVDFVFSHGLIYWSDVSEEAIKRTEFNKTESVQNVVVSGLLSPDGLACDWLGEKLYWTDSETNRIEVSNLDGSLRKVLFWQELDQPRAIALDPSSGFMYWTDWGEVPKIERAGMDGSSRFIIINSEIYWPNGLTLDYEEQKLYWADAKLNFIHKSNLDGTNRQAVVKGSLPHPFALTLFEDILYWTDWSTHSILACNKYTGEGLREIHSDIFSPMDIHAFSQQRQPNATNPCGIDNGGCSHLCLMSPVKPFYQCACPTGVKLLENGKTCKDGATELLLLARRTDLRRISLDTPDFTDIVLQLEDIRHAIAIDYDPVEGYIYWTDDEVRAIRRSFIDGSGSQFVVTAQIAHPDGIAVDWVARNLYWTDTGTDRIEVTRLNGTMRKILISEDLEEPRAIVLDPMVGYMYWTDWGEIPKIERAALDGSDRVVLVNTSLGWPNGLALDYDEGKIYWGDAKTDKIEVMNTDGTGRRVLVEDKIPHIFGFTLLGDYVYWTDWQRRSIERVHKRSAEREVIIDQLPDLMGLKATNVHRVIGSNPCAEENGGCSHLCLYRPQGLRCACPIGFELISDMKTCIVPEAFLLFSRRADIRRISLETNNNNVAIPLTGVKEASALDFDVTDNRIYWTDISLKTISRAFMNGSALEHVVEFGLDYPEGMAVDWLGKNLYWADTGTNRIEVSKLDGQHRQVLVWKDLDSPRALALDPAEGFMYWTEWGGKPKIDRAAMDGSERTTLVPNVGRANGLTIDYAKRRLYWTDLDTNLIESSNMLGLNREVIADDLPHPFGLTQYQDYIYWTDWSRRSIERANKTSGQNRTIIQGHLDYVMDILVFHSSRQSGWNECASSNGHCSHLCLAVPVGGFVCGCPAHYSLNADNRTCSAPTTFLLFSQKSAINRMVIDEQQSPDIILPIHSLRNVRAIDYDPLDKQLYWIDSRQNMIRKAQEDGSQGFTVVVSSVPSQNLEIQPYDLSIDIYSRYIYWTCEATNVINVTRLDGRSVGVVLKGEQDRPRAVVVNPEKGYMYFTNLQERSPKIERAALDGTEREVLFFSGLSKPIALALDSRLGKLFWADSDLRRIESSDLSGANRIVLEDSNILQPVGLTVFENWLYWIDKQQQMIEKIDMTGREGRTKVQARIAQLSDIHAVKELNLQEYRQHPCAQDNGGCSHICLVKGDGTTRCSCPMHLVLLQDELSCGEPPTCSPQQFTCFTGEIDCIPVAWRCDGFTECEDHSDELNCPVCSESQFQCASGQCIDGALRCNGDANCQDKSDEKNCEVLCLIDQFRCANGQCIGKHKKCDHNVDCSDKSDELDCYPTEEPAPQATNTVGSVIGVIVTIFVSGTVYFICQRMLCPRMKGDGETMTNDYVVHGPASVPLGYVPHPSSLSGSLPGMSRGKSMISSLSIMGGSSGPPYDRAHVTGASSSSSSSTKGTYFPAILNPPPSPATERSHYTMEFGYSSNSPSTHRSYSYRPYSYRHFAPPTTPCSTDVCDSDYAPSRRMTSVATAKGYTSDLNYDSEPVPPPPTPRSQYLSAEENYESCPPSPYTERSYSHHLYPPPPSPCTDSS
UniProt P41221, 62-380 limits assumed: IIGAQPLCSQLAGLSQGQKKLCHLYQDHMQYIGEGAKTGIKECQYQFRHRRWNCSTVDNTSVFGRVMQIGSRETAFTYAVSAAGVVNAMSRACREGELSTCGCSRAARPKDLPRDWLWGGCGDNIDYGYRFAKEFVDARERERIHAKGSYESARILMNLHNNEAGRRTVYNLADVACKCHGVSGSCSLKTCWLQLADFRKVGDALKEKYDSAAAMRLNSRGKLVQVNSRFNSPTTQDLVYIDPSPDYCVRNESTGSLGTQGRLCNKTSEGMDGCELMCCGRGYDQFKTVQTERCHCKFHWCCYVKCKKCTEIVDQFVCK

Key:
[1] = molecular target: Lgr4 (endogenous, or expression construct whose tag is not stated) (human) (UniProt Q9BXB1); test: TAP (anti-FLAG, anti-HA) + mass spectrometry, bait transfected in 293T cells, Exp 1, prey row LGR4
[2] = molecular target: LRP5 (endogenous) (human) (UniProt O75197); test: TAP (anti-FLAG, anti-HA) + mass spectrometry, bait transfected in 293T cells, Exp 1, prey row LRP5
[3] = molecular target: LRP6 (endogenous) (human) (UniProt O75581); test: TAP (anti-FLAG, anti-HA) + mass spectrometry, bait transfected in 293T cells, Exp 1, prey row LRP6
Wnt5a (human) = Wnt5a (human) (UniProt P41221); test: TAP (anti-FLAG, anti-HA) + mass spectrometry, bait transfected in 293T cells, Exp 1, prey row Wnt5a

double-tagged Frizzled7 (Frz7-FH) (from UniProt O75084 33-574) (receptor)
# unique peptides [1]: 7
MASCOT Protein score (MudPit) [1]: 67
assigned spectra [1]: 8
# unique peptides [2]: 1
MASCOT Protein score (MudPit) [2]: 143
assigned spectra [2]: 3
# unique peptides [3]: 31
MASCOT Protein score (MudPit) [3]: 1220
assigned spectra [3]: 64
# unique peptides (Wnt5a (human)): 8
MASCOT Protein score (MudPit) (Wnt5a (human)): 127
assigned spectra (Wnt5a (human)): 14
